The values that follow come from patent publication US10174056B2, “Substituted pyrrolo[2,3-d]pyrimidines as janus kinase inhibitors” (WUXI FORTUNE PHARMACEUTICAL CO., LTD, priority 2015, dated 2019).

By UniProt entry, the sequences of proteins in these tests, tags left out. Where a name states a change or a piece, a line headed by the entry shows the natural chain unless it says otherwise.
UniProt P23458: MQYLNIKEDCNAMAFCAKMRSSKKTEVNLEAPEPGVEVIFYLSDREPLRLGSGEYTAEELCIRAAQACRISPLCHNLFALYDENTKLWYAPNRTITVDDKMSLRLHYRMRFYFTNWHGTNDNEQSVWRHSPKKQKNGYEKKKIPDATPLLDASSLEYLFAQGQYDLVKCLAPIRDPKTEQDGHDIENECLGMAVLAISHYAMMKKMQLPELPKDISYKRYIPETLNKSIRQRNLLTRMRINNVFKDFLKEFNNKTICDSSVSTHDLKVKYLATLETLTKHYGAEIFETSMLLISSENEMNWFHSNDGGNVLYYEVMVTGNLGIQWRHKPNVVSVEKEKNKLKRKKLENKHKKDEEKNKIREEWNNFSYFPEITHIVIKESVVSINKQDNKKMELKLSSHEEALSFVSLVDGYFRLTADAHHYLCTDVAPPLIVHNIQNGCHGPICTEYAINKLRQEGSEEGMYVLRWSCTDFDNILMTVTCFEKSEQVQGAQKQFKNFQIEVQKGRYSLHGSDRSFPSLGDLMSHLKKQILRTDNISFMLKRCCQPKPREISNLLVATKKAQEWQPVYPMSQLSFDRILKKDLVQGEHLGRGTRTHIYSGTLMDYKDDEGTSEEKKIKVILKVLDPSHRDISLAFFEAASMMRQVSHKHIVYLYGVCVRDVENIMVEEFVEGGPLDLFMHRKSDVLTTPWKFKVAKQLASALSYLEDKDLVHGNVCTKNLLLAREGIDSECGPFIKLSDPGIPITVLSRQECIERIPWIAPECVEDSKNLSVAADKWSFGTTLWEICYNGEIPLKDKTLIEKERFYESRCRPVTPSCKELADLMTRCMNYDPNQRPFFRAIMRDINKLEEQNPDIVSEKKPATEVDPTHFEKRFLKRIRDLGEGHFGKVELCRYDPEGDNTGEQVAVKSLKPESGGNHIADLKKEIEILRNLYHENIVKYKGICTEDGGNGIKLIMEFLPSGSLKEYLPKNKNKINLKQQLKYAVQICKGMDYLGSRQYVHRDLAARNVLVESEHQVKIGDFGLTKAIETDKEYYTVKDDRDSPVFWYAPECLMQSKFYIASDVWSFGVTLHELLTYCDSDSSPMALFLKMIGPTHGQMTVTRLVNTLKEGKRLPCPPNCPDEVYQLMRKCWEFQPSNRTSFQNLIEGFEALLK
UniProt O60674: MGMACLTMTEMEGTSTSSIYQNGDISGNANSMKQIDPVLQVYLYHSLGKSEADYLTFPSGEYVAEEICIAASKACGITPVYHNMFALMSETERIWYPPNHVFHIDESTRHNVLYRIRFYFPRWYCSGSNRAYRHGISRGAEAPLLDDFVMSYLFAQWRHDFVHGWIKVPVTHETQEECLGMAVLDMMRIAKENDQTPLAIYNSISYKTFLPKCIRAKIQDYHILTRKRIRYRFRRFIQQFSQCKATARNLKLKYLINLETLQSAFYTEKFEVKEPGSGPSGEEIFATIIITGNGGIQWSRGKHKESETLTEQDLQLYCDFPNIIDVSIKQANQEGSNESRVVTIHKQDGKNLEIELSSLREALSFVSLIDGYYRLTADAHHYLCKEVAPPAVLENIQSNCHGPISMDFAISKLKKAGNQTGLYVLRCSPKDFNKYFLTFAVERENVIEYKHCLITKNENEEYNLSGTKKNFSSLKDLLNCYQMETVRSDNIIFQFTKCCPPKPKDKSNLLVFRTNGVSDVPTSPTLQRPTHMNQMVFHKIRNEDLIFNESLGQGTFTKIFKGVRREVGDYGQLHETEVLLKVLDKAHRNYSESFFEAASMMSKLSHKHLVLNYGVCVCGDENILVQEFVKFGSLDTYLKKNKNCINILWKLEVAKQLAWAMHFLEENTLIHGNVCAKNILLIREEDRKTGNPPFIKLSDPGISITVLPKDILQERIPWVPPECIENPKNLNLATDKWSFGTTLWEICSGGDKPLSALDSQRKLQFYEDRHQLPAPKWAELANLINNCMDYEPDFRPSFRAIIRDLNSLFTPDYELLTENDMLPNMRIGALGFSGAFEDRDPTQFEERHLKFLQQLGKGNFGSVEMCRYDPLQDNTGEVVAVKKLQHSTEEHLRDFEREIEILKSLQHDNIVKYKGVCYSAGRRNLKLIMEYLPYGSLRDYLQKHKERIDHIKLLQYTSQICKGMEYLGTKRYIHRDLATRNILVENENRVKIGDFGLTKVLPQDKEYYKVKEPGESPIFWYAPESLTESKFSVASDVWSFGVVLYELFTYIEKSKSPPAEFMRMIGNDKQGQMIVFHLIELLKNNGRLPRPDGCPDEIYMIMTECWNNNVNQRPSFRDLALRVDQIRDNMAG

One assay has as its target T1, JAK1 (Homo sapiens, UniProt P23458).
T1 construct: purchased Life technology
Nature of the assay: Test for in vitro activity of JAK1 kinase (LANCE Ultra ULight peptide). Format: biochemical. As to conditions: recombinant human JAK1, 38 uM ATP, 90 min. The protocol:
(§1) Test for in vitro activity of Jak1, Jak2, and Jak3 Kinase
(§2) Recombinant human […] of JAK1, JAK2 and JAK3 were purchased from Life technology. LANCE Ultra ULight™-JAK-1 (Tyr1023) peptide and LANCE Eu-W1024 Anti-phosphotyrosine (PT66) were purchased from PerkinElmer. Multimode ELISA, Envison(PerkinElmer) reader was used.
(§3) The test compound was diluted according to gradient of three times concentration with a final concentration of from 10 uM to 0.17 nM at 11 concentrations totally, each concentration with two complex holes, and the content of DMSO in the detection was 1%.
2 nM of JAK1 Protein kinase, 50 nM of LANCE Ultra ULight™-JAK-1(Tyr1023) peptide, 38 uM of ATP, 50 mM of HEPES (pH 7.5), 10 mM of MgCl2, 1 mM of EGTA, 2 mM of DTT, 0.01% BRIJ-35. Checker board is White Proxiplate 384-Plus plate (PerkinElmer). The reaction was carried out at room temperature for 90 min and the reaction system was 10 ul.
(§4) 10 ul detection reagent was added to reaction plate, wherein the final concentration of LANCE Eu-W1024 Anti-phosphotyrosine (PT66) was 2 nM, the final concentration of EDTA was […], incubated at room temperature for 60 min, with Envison reader.
(§5) The reading was converted to inhibition ratio (%) by the following formula: the inhibition ratio (%)=([…])/(Max−Min)×100%.
A general note: In TR-FRET formats the signal depends on donor and acceptor labels being close together.

In a further assay the target is T2, JAK2 (Homo sapiens, UniProt O60674).
T2 construct: purchased Life technology
Description: Test for in vitro activity of JAK2 kinase (LANCE Ultra ULight peptide). The format is biochemical. The settings on record: recombinant human JAK2, 12 uM ATP, 60 min. The protocol: as §1, §2, §3
0.02 nM of JAK2 Protein kinase, 50 nM of LANCE Ultra ULight™-JAK-1(Tyr1023) peptide, 12 uM of ATP, 50 mM of HEPES (pH 7.5), 10 mM of MgCl2, 1 mM of EGTA, 2 mM of DTT, 0.01% BRIJ-35. Checker board is White Proxiplate 384-Plus plate (PerkinElmer). The reaction was carried out at room temperature for 60 min and the reaction system was 10 ul.
as §4, §5

For orientation: IC50 means the concentration at which inhibition is half-maximal.

Turning to “N-(2-(difluoromethyl)-5,6,7,8-tetrahydroimidazo[1,2-a]pyridine-7-yl)-N-methyl-7H-pyrrolo[2,3-d]pyrimidine-4-amino [WX611]”, the IC50 lay within 10 to 100 nM on JAK1 and 100 to 1000 nM at JAK2.
